PMC8414367, “(E)-7-Ethylidene-lithocholic Acid (7-ELCA) Is a Potent Dual Farnesoid X Receptor (FXR) Antagonist and GPBAR1 Agonist Inhibiting FXR-Induced Gene Expression in Hepatocytes and Stimulating Glucagon-like Peptide-1 Secretion From Enteroendocrine Cells” (Frontiers in Pharmacology, 2021)

Molecular target: T1, human FXR (Homo sapiens, UniProt Q96RI1)
T1 sequence (Q96RI1 1-486): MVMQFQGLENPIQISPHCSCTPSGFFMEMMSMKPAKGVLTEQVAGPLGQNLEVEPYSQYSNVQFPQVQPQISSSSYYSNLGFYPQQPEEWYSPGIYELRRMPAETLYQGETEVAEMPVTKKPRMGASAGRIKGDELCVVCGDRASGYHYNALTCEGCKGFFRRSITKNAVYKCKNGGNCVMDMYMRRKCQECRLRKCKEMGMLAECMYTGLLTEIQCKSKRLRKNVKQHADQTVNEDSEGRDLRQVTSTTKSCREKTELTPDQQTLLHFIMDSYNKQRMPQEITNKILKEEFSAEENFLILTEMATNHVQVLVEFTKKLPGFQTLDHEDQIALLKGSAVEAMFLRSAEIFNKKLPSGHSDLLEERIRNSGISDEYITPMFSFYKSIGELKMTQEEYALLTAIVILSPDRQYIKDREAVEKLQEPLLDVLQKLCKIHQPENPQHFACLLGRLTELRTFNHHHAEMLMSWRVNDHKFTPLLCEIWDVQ
T1 sequence (P19793 1-462 partner): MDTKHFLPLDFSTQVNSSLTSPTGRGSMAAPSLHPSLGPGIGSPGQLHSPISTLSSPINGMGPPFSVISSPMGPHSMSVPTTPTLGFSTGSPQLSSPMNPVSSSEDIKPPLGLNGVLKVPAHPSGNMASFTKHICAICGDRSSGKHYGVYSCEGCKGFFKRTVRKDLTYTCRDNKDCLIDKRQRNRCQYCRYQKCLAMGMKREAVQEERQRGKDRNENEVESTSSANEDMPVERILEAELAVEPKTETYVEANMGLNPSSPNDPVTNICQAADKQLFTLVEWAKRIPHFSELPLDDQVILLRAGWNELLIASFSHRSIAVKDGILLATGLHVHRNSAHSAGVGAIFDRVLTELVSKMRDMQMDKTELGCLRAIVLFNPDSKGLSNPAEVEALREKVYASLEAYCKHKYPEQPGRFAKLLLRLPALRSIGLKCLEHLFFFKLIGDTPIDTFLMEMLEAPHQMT
Test: FXR luciferase reporter gene assay (FXRE-luc) in HepG2 cells, antagonistic mode
Type: cell-based
Settings: at 100 µM, with 1 µM OCA

- inhibition of FXR activation: 70%
SMILES: C/C=C1\C(=O)C[C@H]2[C@@H]3CCC4=CC(=O)CC[C@]4(C)[C@H]3CC[C@]12C [Z-GUG, Z-guggulsterone, reference compound]
